The record followed here is patent US8921555B2, “Substituted-1,3,8-triazaspiro[4.5]decane-2,4-diones” (Merck Sharp & Dohme Corp., priority 2009, dated 2014).

Chains of the proteins cited; added tags and fusions are not shown.
UniProt Q9GZT9, whole entry: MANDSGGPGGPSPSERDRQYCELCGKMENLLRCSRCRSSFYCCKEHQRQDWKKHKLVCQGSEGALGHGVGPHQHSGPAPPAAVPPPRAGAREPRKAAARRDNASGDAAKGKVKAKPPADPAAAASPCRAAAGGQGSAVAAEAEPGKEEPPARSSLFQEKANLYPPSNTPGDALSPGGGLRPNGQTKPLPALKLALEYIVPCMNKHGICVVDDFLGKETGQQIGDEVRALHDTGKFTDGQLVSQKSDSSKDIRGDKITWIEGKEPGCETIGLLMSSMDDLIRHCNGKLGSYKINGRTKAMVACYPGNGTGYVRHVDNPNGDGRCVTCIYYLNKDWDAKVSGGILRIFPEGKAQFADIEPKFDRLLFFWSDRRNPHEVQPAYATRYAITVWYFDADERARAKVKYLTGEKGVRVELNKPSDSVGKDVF

pIC50: −log10 of the molar value. Only a part of the results on these compounds is given; other tests are left out.

The experiment addresses HIF-PHD2 (Homo sapiens, UniProt Q9GZT9). As to the kind of experiment: Assay for HIF-PHD2 Catalytic Activity (PHD2 Binding Activity). In kind it is biochemical. To be noted: read-out: PHD2 Binding Activity IC50.
In the case of “3-biphenyl-4-yl-1-(6-hydroxypyrimidin-4-yl)-8-[(3-methylpyridin-2-yl)methyl]-2,4-dioxo-1,3,8-triazaspiro[4.5]decane-6-carboxylic acid”, the pIC50 was 7.70 to 9.30.
Consider “3-biphenyl-4-yl-1-(4-hydroxypyrimidin-2-yl)-8-[(3-methylpyridin-2-yl)methyl]-1,3,8-triazaspiro[4.5]decane-2,4-dione”, for which the negative logarithm of the IC50 (pIC50) is 7.70 to 9.30.
With “tert-butyl (2-{[3-biphenyl-4-yl-1-(4-methoxypyrimidin-2-yl)-2,4-dioxo-1,3,8-triazaspiro[4.5]dec-8-yl]methyl}-1H-imidazol-1-yl)acetate”, the pIC50 was 7.70 to 9.30.
